Target: human TRPV1 (Homo sapiens, UniProt Q8NER1)
Assay: TPRV1 binding assay, displacement of [3H]RTX from HEK cells membranes
Settings: read-out: Kd for [3H]RTX, 50 μg/tube, tested as the radiolabelled form
Description: Affinity for human TRPV1 was measured by displacement of [3H]RTX (48 Ci/mmol, NEN-Dupont) from HEK cells membranes (50 μg/tube) according to the method described by Ross (Ross et al., Br. J. Pharmacol. 2001, 132, 631-640). In these conditions Kd and Bmax for [^3H]RTX were 0.5 nM and 1.39 pmol/mg protein. The Ki of the displacement of 1 nM [3]RTX was calculated from the IC50 value (obtained with GraphPad Software) using Cheng-Prusoff's equation. Specific binding was calculated with 1 μM RTX (Alexis Biochemicals) and was 48.1+5.6%.

Protein sequences, listed by entry. Tags and fused reporters are not part of them.
UniProt Q8NER1, whole entry: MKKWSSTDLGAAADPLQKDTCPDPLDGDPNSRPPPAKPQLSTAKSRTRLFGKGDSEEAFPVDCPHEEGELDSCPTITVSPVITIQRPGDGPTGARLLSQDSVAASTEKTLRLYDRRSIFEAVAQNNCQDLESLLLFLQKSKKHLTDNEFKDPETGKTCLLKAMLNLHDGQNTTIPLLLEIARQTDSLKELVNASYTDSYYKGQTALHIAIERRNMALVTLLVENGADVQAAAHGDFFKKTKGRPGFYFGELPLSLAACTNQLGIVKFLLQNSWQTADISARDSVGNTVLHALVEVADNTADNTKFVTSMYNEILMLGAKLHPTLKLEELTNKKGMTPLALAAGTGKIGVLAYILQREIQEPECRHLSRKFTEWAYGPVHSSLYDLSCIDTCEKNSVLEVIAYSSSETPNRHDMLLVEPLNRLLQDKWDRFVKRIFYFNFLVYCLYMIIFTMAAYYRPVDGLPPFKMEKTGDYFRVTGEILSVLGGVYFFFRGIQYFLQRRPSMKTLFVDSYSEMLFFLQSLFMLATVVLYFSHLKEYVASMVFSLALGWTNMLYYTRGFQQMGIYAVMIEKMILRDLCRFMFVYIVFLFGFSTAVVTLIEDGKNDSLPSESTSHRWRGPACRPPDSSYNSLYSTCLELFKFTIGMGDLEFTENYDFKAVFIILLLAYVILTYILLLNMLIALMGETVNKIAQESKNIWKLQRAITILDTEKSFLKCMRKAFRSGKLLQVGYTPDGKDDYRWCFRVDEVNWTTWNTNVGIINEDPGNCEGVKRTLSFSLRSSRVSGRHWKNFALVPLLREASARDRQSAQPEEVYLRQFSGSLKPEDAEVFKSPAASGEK

C=C(C)C12CC(C)C34OC(Cc5ccccc5)(OC1C3C=C(COC(=O)Cc1ccc(O)c(OC)c1)CC1(O)C(=O)C(C)=CC14)O2 (stereo not shown)
Kd: 0.5 nM
